The target in test [1] is Mouse EphA2 (Ecto), C-terminal polyHis (Mouse) (UniProt Q03145). The experiment in a line: FP competition against Reference Compound C (Study 2).
Test [2] deals with Human EphA2 (Ecto), C-terminal polyHis (Human) (UniProt P29317). The test is described as above.

Amino acid sequences for entries named in this document (tags omitted). Residues count along the entry.
UniProt Q03145, 26-538: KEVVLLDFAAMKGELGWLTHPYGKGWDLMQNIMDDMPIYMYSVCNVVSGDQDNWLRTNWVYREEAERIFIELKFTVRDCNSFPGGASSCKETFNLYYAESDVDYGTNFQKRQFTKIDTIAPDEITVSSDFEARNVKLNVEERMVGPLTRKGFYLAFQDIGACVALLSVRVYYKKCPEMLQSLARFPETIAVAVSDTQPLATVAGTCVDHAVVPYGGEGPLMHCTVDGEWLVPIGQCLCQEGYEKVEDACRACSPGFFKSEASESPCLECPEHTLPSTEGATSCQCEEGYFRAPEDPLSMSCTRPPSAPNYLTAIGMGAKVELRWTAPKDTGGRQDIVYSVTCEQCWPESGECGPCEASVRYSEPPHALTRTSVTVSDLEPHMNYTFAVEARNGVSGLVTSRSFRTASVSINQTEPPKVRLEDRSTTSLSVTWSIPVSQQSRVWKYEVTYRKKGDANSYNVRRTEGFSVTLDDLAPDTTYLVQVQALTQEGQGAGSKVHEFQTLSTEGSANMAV
UniProt P29317, 24-537: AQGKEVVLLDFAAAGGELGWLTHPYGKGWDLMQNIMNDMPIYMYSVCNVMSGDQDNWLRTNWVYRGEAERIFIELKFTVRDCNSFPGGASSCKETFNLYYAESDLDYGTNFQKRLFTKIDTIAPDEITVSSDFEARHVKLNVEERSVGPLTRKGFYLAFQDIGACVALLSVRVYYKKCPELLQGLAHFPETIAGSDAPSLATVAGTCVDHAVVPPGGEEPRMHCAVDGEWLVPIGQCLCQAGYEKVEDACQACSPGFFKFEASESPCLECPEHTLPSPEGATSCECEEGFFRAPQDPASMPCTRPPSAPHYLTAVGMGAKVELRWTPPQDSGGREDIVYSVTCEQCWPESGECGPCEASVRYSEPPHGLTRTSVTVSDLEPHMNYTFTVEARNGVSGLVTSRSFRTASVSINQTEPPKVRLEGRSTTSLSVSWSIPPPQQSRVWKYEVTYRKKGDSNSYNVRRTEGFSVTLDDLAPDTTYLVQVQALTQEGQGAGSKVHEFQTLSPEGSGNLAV

*1 amine or outer side, *2 acyl side, *3 side chain or, on linkers, in order; H or OH if unused. Bridges are numbered along the chain shown (N, C = ends). Where no end group is shown, it is not given here. [ ]: non-standard residue; d: D form. Sar10 = ten sarcosine residues in a row, CN(CC(=O)N(C)CC(=O)N(C)CC(=O)N(C)CC(=O)N(C)CC(=O)[*:2])C(=O)CN(C)C(=O)CN(C)C(=O)CN(C)C(=O)CN(C)C(=O)CN(C)[*:1]; TATA = O=C(CC[*:1])N1CN(C(=O)CC[*:2])CN(C(=O)CC[*:3])C1; Hyp = O=C(O)[C@@H]1C[C@@H](O)CN1; hArg = N=C(N)NCCCC[C@H](N)C(=O)O; βAla = NCCC(=O)O

B1: BCY6099 (peptide)
peptide: [βAla][Sar10]A[hArg]DC[Hyp]LVNPLCLHP[dD]W[hArg]C-NH2
modifications: linker 6-13-20 via TATA; N-terminus assumed
SMILES: CC(C)C[C@@H]1NC(=O)[C@@H]2CSCCC(=O)N3CN(CN(C3)C(=O)CCSC[C@H](NC(=O)[C@H](CC(=O)O)NC(=O)[C@H](CCCCNC(=N)N)NC(=O)[C@H](C)NC(=O)CN(C)C(=O)CN(C)C(=O)CN(C)C(=O)CN(C)C(=O)CN(C)C(=O)CN(C)C(=O)CN(C)C(=O)CN(C)C(=O)CN(C)C(=O)CN(C)C(=O)CCN)C(=O)N3C[C@H](O)C[C@H]3C(=O)N[C@@H](CC(C)C)C(=O)N[C@@H](C(C)C)C(=O)N[C@@H](CC(N)=O)C(=O)N3CCC[C@H]3C(=O)N[C@@H](CC(C)C)C(=O)N2)C(=O)CCSC[C@@H](C(N)=O)NC(=O)[C@H](CCCCNC(=N)N)NC(=O)[C@H](Cc2c[nH]c3ccccc23)NC(=O)[C@@H](CC(=O)O)NC(=O)[C@@H]2CCCN2C(=O)[C@H](Cc2c[nH]cn2)NC1=O
As usually defined, the Ki is a measure of affinity in units of concentration, obtained from inhibition or displacement. Consider B1, for which the Ki in test [1] is 4.5 nM; in test [2], 2.7 nM.

B2: BCY6136 (peptide)
peptide: [βAla][Sar10]A[hArg]DC[Hyp]LVNPLCLHP[dD]W[hArg]C
modifications: linker 6-13-20 via TATA; not fully specified (C-terminus); also: ValCit-MMAE linker-toxin attached, site not given here
Regarding B2, in test [2], the Ki came out at 1.9 nM.

The values are drawn from patent US20190184025A1.
